According to PubChem BioAssay AID2550 (Johns Hopkins Ion Channel Center, 2010):
The entries are a selection whose mix differs from that of the whole data set. Activity calls are given as the source filed them.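 The calls were made as follows: active = B-score of the integrated fluorescence ratio above library mean plus 3 SD, and starting fluorescence ratio within library mean plus 5 SD; inactive = the rest.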

Chains of the proteins cited; added tags and fusions are not shown.
UniProt Q61143, whole entry: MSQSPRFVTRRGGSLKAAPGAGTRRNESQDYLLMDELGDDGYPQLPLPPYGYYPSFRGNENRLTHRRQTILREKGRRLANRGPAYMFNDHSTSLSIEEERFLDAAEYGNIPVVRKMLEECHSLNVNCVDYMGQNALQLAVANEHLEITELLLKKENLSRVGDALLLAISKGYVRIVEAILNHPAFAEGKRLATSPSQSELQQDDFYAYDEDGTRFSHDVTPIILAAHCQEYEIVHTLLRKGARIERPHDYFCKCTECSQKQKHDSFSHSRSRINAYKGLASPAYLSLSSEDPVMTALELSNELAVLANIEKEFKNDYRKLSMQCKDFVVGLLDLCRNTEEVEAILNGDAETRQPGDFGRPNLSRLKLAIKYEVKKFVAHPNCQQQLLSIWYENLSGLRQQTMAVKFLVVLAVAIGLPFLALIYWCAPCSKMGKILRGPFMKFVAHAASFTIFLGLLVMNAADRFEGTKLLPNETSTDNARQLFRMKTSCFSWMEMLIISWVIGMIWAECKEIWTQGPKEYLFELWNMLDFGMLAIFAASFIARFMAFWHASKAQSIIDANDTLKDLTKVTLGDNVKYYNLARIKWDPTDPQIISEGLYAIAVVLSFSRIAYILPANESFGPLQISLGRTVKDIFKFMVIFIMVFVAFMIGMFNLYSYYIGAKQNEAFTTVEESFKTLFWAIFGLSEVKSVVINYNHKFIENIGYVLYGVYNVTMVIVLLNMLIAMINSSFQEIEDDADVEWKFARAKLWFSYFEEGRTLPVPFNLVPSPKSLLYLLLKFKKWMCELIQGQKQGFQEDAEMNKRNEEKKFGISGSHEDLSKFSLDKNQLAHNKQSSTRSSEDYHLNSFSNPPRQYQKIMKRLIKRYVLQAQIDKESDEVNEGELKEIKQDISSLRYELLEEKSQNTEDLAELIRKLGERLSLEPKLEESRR

Target: Short transient receptor potential channel 6 (Mus musculus) (UniProt Q61143)
Test: small molecules opening TRPC6 cation channel – cell-based, HEK293, membrane potential dye, primary screen (AID 2550);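 also: higher score means more depolarization so channel activation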
Conditions: HEK293-TRPC6 membrane potential dye fluorescence; at 10 µM

| Compound | outcome |
| --- | --- |
| Cc1ccc(OCC(C)C)c(CN(CCCl)CCCl)c1 | inactive |
| CCOC(=O)N1CCC(Nc2cccc(C)c2)CC1 | inactive |
| COc1cc(C(=O)NCC2(N(C)C)CCCCC2)ccc1OC(F)F | inactive |
| COc1ccc(NC2CCN(CCc3ccccc3)CC2)c(OC)c1 | inactive |
| CCOC(=O)N1CCC(Nc2ccc(F)cc2)CC1 | inactive |
| O=C(NCC1(N2CCCCC2)CCCCC1)c1ccc(F)cc1 | inactive |
| CCOc1ccc(C)cc1CN(CCCl)CCCl | inactive |
| N#CC1(Nc2ccccc2)CCN(Cc2ccccc2)CC1 | inactive |
| O=C(OC1CN2CCC1CC2)C1c2ccccc2Oc2ccccc21 (centres undefined) | inactive |
| CCOC(=O)N1CCC(Nc2ccc(OC)cc2)CC1 | inactive |
| Cc1cc(C)cc(N(C(=O)c2ccccc2)C2CCN(C(=O)OC(C)(C)C)CC2)c1 | inactive |
| O=C(NCC1(N2CCCCC2)CCCCC1)c1ccc(Cl)nc1 | inactive |
| O=C(NCC1(N2CCOCC2)CCCCC1)c1cc2ccccc2o1 | inactive |
| CSc1ccccc1C(=O)NCC1(N2CCCCC2)CCCCC1 | inactive |
| CC(C)(C)OC(=O)N1CCC(N(C(=O)c2ccccc2)c2ccc(F)cc2)CC1 | inactive |
| COc1ccc(C(=O)NCC2(N3CCCCC3)CCCCC2)c(OC)c1OC | inactive |
| COc1ccc(C(=O)NCC2(N3CCCCC3)CCCCC2)cc1 | inactive |
| O=C(NCC1(N2CCCCC2)CCCCC1)c1cccs1 | inactive |
| O=C(NCC1(N2CCCCC2)CCCCC1)c1ccc(=O)[nH]c1 | inactive |
| CCCOc1ccc(C(=O)NCC2(N(C)C)CCCCC2)cc1OC | inactive |

| Compound | outcome |
| --- | --- |
| CN1CCC(Nc2cccc(F)c2)CC1 | inactive |
| COc1cc(OC)c(C(=O)NCC2(N(C)C)CCCCC2)cc1OC | inactive |
| CC(C)c1ccc(NC2CCN(C(=O)OC(C)(C)C)CC2)cc1 | inactive |
| CN(C)c1cccc(C(=O)NCC2(N3CCCCC3)CCCCC2)c1 | inactive |
| COc1ccc(CN(CCCl)CCCl)cc1Cl | inactive |
| COc1cc(C(=O)NCC2(N3CCCCC3)CCCCC2)ccc1OC(F)F | inactive |
| O=C(NCC1(N2CCOCC2)CCCCC1)c1cc(=O)[nH]c2ccccc12 | inactive |
| CN1CCN(CCOC(=O)C(O)(c2ccccc2)c2ccccc2)CC1 | inactive |
| COc1ccc(NC2CCN(C(=O)OC(C)(C)C)CC2)cc1 | inactive |
| O=C(NCC1(N2CCCCC2)CCCCC1)c1cccc(C(F)(F)F)c1 | inactive |
| N#CC1(Nc2ccccc2)CCN(CCc2ccccc2)CC1 | inactive |
| CCN1CCC(Nc2ccc(Cl)cc2)CC1 | inactive |
| O=C(NCC1(N2CCCCC2)CCCCC1)c1cccc([N+](=O)[O-])c1 | inactive |
| O=C(NCC1(N2CCCCC2)CCCCC1)c1ccc(OC(F)F)cc1 | inactive |
| CN(C)C1(CNC(=O)c2cccc(C#N)c2)CCCCC1 | inactive |
| CCCN1CCC(Nc2cc(OC)cc(OC)c2)CC1 | inactive |
| c1ccc(CN2CCC(Nc3ccccc3)CC2)cc1 | inactive |
| N#Cc1ccc(C(=O)NCC2(N3CCCCC3)CCCCC2)cc1 | inactive |
| CC(C)(C)OC(=O)N1CCC(N(C(=O)c2ccccc2)c2ccc(Cl)cc2)CC1 | inactive |
| CCc1cc(C(=O)NCC2(N3CCCCC3)CCCCC2)sc1C | inactive |

| Compound | outcome |
| --- | --- |
| O=C(OC1CN2CCC1CC2)C1c2ccccc2C=Cc2ccccc21 (centres undefined) | inactive |
| CCOC(=O)N1CCC(Nc2ccc(C)cc2)CC1 | inactive |
| N/C(=N\O)c1c(N)no[n+]1[O-] | inactive |
| COc1ccc(C(=O)NCC2(N3CCOCC3)CCCCC2)cc1OC | inactive |
| CN1CCC(Nc2ccc(Cl)cc2)CC1 | inactive |
| CCCOc1ccc(C)cc1CN(CCCl)CCCl | inactive |
| COc1cc(OC)cc(C(=O)NCC2(N3CCOCC3)CCCCC2)c1 | inactive |
| COc1cccc(C(=O)N(c2cc(C)cc(C)c2)C2CCN(C(=O)OC(C)(C)C)CC2)c1 | inactive |
| CCC(CO)(C(=O)OC1CN2CCC1CC2)c1ccccc1 (centres undefined) | inactive |
| O=C(O)C1(Nc2ccccc2)CCN(Cc2ccccc2)CC1 | inactive |
| CC(C)(C)OC(=O)N1CCC(Nc2ccccc2)CC1 | inactive |
| CCCOc1ccc(C(=O)NCC2(N(C)C)CCCCC2)cc1 | inactive |
| CN1CCC(Nc2ccc(F)c(Cl)c2)CC1 | inactive |
| CCOc1ncccc1C(=O)NCC1(N2CCOCC2)CCCCC1 | inactive |
| CN(C)c1ccc(C(=O)NCC2(N3CCCCC3)CCCCC2)cc1 | inactive |
| CCN1CCC(Nc2cccc(F)c2)CC1 | inactive |
| Fc1ccccc1NC1CCN(Cc2ccccc2)CC1 | inactive |
| Cc1ccc(C(=O)NCC2(N3CCCCC3)CCCCC2)o1 | inactive |
| COc1cc(OC)cc(C(=O)NCC2(N3CCCCC3)CCCCC2)c1 | inactive |
